These results are taken from PubChem BioAssay AID1778 (Sanford-Burnham Center for Chemical Genomics, 2009).

By UniProt entry, the sequences of proteins in these tests, tags left out. Where a name states a change or a piece, a line headed by the entry shows the natural chain unless it says otherwise.
UniProt P41145: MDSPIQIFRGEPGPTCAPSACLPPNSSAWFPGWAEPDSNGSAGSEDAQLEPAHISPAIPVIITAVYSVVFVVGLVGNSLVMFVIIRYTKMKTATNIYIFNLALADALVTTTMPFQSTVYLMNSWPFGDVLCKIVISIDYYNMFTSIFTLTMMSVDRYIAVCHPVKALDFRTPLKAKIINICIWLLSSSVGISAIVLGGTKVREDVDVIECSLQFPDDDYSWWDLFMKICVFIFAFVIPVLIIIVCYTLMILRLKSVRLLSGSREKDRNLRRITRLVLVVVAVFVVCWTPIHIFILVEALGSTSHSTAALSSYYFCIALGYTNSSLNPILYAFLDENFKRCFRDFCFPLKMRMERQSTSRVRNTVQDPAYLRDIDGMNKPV

Broadly, the inhibition is the drop in the measured response relative to a control, in per cent.

Where “and” joins values, the source holds several entries; their conditions need not be identical. Equal entries are not always repeated. The list shows a part of the results. Results with a measured potency or affinity are listed apart. Calls of active or inactive are those of the source. Rule as the data show it: active = inhibition above about 50%; inactive = the rest.

This assay addresses Kappa-type opioid receptor (Homo sapiens) (UniProt P41145). The assay is described as follows: KOR antagonists, beta-arrestin recruitment, cell-based, luminescence, uHTS (AID 1778). As to conditions: antagonist mode, at 10 µM, hits give high values.
Turning to `Cc1cccc(NC(=O)Cn2c(=O)n(C)c3ccccc32)c1`, the inhibition is inactive: -7.7%.

For `COc1ccc(NC2CCN(C3CC(=O)N(c4ccc(F)c(Cl)c4)C3=O)CC2)cc1` (stereo not given), the inhibition was inactive: 21.8%.

Regarding `CCCCOC(=O)Cn1c(=N)n(CCN(CC)CC)c2ccccc21`, the inhibition is inactive: -13%.

As to `O=C(Cn1c(COc2ccccc2)nc2ccccc21)Nc1cccc(Cl)c1`, the inhibition was inactive: -27.4%.

On to `CCOP(=O)(Nc1ccccc1)OCC`, for which the inhibition was inactive: -6.7% and inactive: 35%.

As to `CCOc1ccc2nc(NC(=O)Cn3cnc4c3c(=O)n(C)c(=O)n4C)sc2c1`, the inhibition was inactive: -51.1%.

On to `O=C(Cn1c(/C=C/c2ccccc2)nc2ccccc21)Nc1ccc(F)cc1`, for which the inhibition was inactive: 14.5%.

Turning to `Cc1csc2c(NC3CCN(Cc4ccccc4)CC3)ncnc12`, the inhibition is inactive: 7.9%.

On to `CCC(=O)Nc1nc2ccccc2n1CCN1CCOCC1`, for which the inhibition was inactive: 4%.

For the compound `Cc1cccc(OCC(O)Cn2c(=N)n(CCN3CCOCC3)c3ccccc32)c1` (stereo not given), the inhibition is inactive: -13.8%.

For the compound `O=C(CSc1nc2ccccc2n1CC(=O)N1CCCC1)NCc1ccc2c(c1)OCO2`, the inhibition is inactive: -46.9%.

As to `Cc1cc(SC(NC(=O)c2ccc(F)cc2)C(Cl)(Cl)Cl)ncn1` (stereo not given), the inhibition is inactive: -21.5%.

On to `c1ccc(CN2CCC(Nc3nc(-c4cccs4)nc4ccccc34)CC2)cc1`, for which the inhibition is inactive: -119%.

Consider `Cc1ccc(NP(=O)(Oc2ccccc2F)Oc2ccccc2F)nc1`, for which the inhibition was inactive: 17.7%.

As for `Cn1c(=O)c2c(ncn2CC(=O)Nc2nc3ccc(F)cc3s2)n(C)c1=O`, the inhibition was inactive: -29.5%.

For the compound `Cn1c(=O)c2c(ncn2CC(N)=O)n(C)c1=O`, the inhibition was inactive: 1.2%.

Take `O=C(Cn1c(-c2cncs2)nc2ccccc21)NCc1ccccc1`: the inhibition was inactive: -4.8%.

Regarding `O=[N+]([O-])c1cc([N+](=O)[O-])c(CCN2CCOCC2)c([N+](=O)[O-])c1`, the inhibition was inactive: -7.3%.

Take `COc1ccc(N2C(=O)CC(n3c(CCCCO)nc4ccccc43)C2=O)cc1` (stereo not given): the inhibition is inactive: 19.5%.

Take `O=C(Nc1ccc2c(c1)nc1n2CCN(Cc2ccccc2)C1)c1cccs1`: the inhibition is inactive: -19.8%.

On to `O=C(CCC(=O)Nc1ccccc1)N/N=C/C=C/c1ccccc1`, for which the inhibition is inactive: 3.2%.

Turning to `CC1CN(Cc2nc3c(c(=O)[nH]c(=O)n3C)n2CCN2CCOCC2)CC(C)O1` (stereo not given), the inhibition was inactive: -5.6%.

On to `CC(C)NC(=O)Cn1c(SCC(=O)N2CCCCCC2)nc2ccccc21`, for which the inhibition was inactive: 21.1%.

As for `Cc1ccccc1NC(=O)Cn1cnc2c1c(=O)n(C)c(=O)n2C`, the inhibition was inactive: -4.2%.

Consider `O=C(Cn1c(COc2ccccc2)nc2ccccc21)Nc1cc(Cl)ccc1Cl`, for which the inhibition was inactive: -5.2%.

As for `COc1ccc(CC(=O)N2CCC(Nc3nc4ccccc4n3Cc3ccc(F)cc3)CC2)cc1`, the inhibition was inactive: -7.8%.

On to `COc1ccc(CCNC(=O)Cn2c(-c3nonc3N)nc3ccccc32)cc1OC`, for which the inhibition was inactive: -25.8%.

For the compound `O=C(Cn1c(SCC(=O)N2CCc3ccccc3C2)nc2ccccc21)NC1CCCC1`, the inhibition is inactive: 21.7%.

In the case of `Cn1c(=O)n(CC(=O)NCc2cccnc2)c2ccccc21`, the inhibition was inactive: -33.1%.

In the case of `CC1CCCCN1C(=O)CSc1nc2ccccc2n1CC(=O)N1CCc2ccccc21` (stereo not given), the inhibition is inactive: -10.4%.

For the compound `Cn1c(=O)c2c(nc(NCc3ccccc3)n2CC(=O)NCc2ccccc2)n(C)c1=O`, the inhibition was inactive: 24%.

Take `O=C(Cn1cnc2ccccc21)Nc1cccc([N+](=O)[O-])c1`: the inhibition is inactive: -29.9%.

`Nc1cccc2ccc([As](=O)(O)O)cc12`: the inhibition is inactive: 18.5%.

For the compound `CN1C(=O)Cn2c1nc1ccccc12`, the inhibition is inactive: -13.3%.

As to `CC(C)C[C@H](NC(=O)N1CCn2c1nc1ccccc12)C(=O)N1CCCCC1`, the inhibition is inactive: -29.7%.

For the compound `CC(C)CSc1nc2ccccc2n1CC(N)=O`, the inhibition is inactive: 7.8%.

On to `Nc1ncnc2c1ncn2C1OC(CO)C(O)C1N` (stereo not given), for which the inhibition was inactive: 3.8%.

Take `Nc1nonc1-c1nc2ccccc2n1CC(=O)Nc1ccccc1`: the inhibition is inactive: 14.9%.

`CCC(=O)Nc1nnc(/C=C/c2ccc(OC)cc2)s1`: the inhibition is inactive: 23.9%.

Take `CC(=O)c1ccc(NC(=O)C2CC(=O)Nc3nc4ccccc4n32)cc1` (stereo not given): the inhibition is inactive: 14.9%.

With `CCN(CC)CCn1c(=N)n(CCOc2ccccc2)c2ccccc21`, the inhibition is inactive: 2.9%.

For the compound `CCN(N=Nc1nonc1N)c1nonc1N`, the inhibition is inactive: -0.4%.

Regarding `CC(C)(C)NC(=O)Cn1c(SCC(=O)NC2CCCC2)nc2ccccc21`, the inhibition was inactive: -0.6%.

Consider `CCN(CC)CCNC(=O)Cn1c(-c2ccccn2)nc2ccccc21`, for which the inhibition was inactive: -25.2%.

For `O=C(CSc1nc2ccccc2n1CC(=O)N1CCCCC1)N1CCCCC1`, the inhibition was inactive: -8.4%.

Consider `Cc1ccc(C(=O)NC(C)c2nc3ccccc3n2CC(=O)Nc2c(C)cc(C)cc2C)cc1` (stereo not given), for which the inhibition was inactive: 28.4%.

With `CC(O)c1nc2ccccc2n1CC(=O)N1CCN(c2ccccc2)CC1` (stereo not given), the inhibition was inactive: -23.5%.

Turning to `CCOCN(C(=O)Cn1c(C(C)O)nc2ccccc21)c1c(C)cccc1CC` (stereo not given), the inhibition is inactive: 13.5%.

Consider `Cc1ccc(N/C(=N/P(=O)(N2CCOCC2)N2CCOCC2)N2CCOCC2)cc1`, for which the inhibition was inactive: -6.3%.

On to `Nc1nonc1-c1nc2ccccc2n1CC(=O)N/N=C\c1ccc(-c2ccc(Cl)cc2)o1`, for which the inhibition is inactive: -26.1%.

In the case of `CCC(C(=O)NC1CCCCC1)n1c(SCc2ccc(F)cc2)nc2ccncc21` (stereo not given), the inhibition was inactive: 26.2%.

On to `CN(C)C(=O)Cn1c(SCC(=O)Nc2ccc3c(c2)OCO3)nc2ccccc21`, for which the inhibition is inactive: -10.5%.

For `NC(=O)c1cc([N+](=O)[O-])cc([N+](=O)[O-])c1N`, the inhibition was inactive: -45.8%.

On to `Cc1ccc2c(c1)C1CN(C)CCC1N2C(=O)c1ccc(Cl)c(S(=O)(=O)N2CCOCC2)c1` (stereo not given), for which the inhibition was inactive: -16.8%.

For the compound `O=C(Nc1ccccc1)N1CCC(n2c(=O)[nH]c3ccccc32)CC1`, the inhibition is inactive: -17.5%.

For the compound `CC1CCCN(C(=O)Cn2c(-c3nonc3N)nc3ccccc32)C1` (stereo not given), the inhibition is inactive: -13.3%.

As for `COc1ccc(CNC(=O)CCCCCNC(=O)N2CCn3c2nc2ccccc23)cc1`, the inhibition was inactive: -8.9%.

With `CCOc1cc(N2CCOCC2)c(OCC)cc1NC(=O)Cn1cnc2c(=O)n(C)c(=O)n(C)c21`, the inhibition was inactive: -24.7%.

As for `O=C(Cn1c(NCCO)nc2ccccc21)NCCc1ccccc1`, the inhibition is inactive: -18.7%.

With `Cc1ccc(/C=N/NC(=O)Cn2cnc3ccccc32)cc1`, the inhibition was inactive: 9.7%.

For `Clc1ccc(Cl)c(NC2=NCC(CBr)S2)c1` (stereo not given), the inhibition is inactive: 11.2%.

Consider `CN1CCCC(OC(=O)C(c2ccccc2)c2ccccc2)C1` (stereo not given), for which the inhibition is inactive: -44.7%.

As for `CCC(C)(C)n1nnnc1CN1CCC(n2c(C)nc3cc(C(F)(F)F)ccc32)CC1`, the inhibition was inactive: -20.5%.

`Cc1nc2cc(F)ccc2n1C1CCN(Cc2nnnn2CCc2ccccc2)CC1`: the inhibition is inactive: -10%.

With `CN1CCN(CCN2CCn3c2nc2ccccc23)CC1`, the inhibition was inactive: 10.2%.

Take `O=C1Cn2c(nc3ccccc32)N1c1cccc(C(F)(F)F)c1`: the inhibition was inactive: -10.9%.

On to `Cc1ccc(OP(=O)(Nc2nccs2)Oc2ccc(C)cc2)cc1`, for which the inhibition is inactive: 3.4%.

Consider `COc1ccc(C(=O)CSc2nc3ccccc3n2CC(=O)NC(C)(C)C)cc1`, for which the inhibition is inactive: -29.6%.

As for `CCC(=O)N1c2ccc(S(=O)(=O)CCC(=O)N3CCn4c3nc3ccccc34)cc2CC1C` (stereo not given), the inhibition is inactive: -23.1%.

For the compound `Oc1ccccc1CNc1ccccn1`, the inhibition is inactive: 2.4%.

Take `COCCN1CCn2c(nc3cc([N+](=O)[O-])ccc32)C1`: the inhibition is inactive: 30.2%.

As to `Nc1ncnc2c1ncn2CCN1CCCCC1`, the inhibition is inactive: 9.7%.

As to `Cc1c2non([O-])c-2c(C)[n+](=O)[n+]1[O-]`, the inhibition was inactive: -13.8%.

As for `O=C(Cn1c(CO)nc2ccccc21)NCCc1ccc(F)cc1`, the inhibition is inactive: 11.6%.

For the compound `CC(C)[C@H](NC(=O)N1CCn2c1nc1ccccc12)C(=O)NCC1CCCO1` (stereo not given in full), the inhibition was inactive: -34.5%.

Turning to `O=C(NC(Sc1ccncn1)C(Cl)(Cl)Cl)c1ccccc1` (stereo not given), the inhibition was inactive: 37.2%.

For `CCCCCCNCCn1cnc2c(N)ncnc21`, the inhibition is inactive: -8.6%.

On to `CCc1cccc(CC)c1NC(=O)Cn1c(-c2ccccc2Cl)nc2ccccc21`, for which the inhibition is inactive: -10.1%.

As for `COCCCNC(=O)CC1C(=O)N(Cc2ccccc2)C(C)c2nc3ccccc3n21` (stereo not given), the inhibition is inactive: 12.3%.

For the compound `Cc1ccccc1C(=O)Nc1cccc(NC(=O)Cn2cnc3c(=O)n(C)c(=O)n(C)c32)c1`, the inhibition was inactive: -34.4%.

Take `N=c1n(CCOc2ccccc2)c2ccccc2n1CCN1CCOCC1`: the inhibition is inactive: 0.1%.

Regarding `CC(C)CC(=O)NC(Sc1ccc(Cl)cc1)C(Cl)(Cl)Cl` (stereo not given), the inhibition is inactive: -15%.

With `CSCC[C@H](NC(=O)N1CCn2c1nc1ccccc12)C(=O)NCc1ccc(C)cc1`, the inhibition was inactive: -22.2%.

On to `O=C(Nc1nc2ccccc2n1CCN1CCOCC1)c1ccc(Cl)cc1`, for which the inhibition is inactive: 11%.

In the case of `Nc1cc(N)c2nonc2c1[N+](=O)[O-]`, the inhibition was inactive: 24.1%.

Consider `COc1cccc(/C=N/NC(=O)Cn2cnc3c2c(=O)n(C)c(=O)n3C)c1OC`, for which the inhibition is inactive: 19.4%.

Take `CCC(=O)Nc1ccc2c(c1)nc1n2CCN(CCOC)C1`: the inhibition is inactive: 17.1%.

Consider `CCCCNc1nc2ccccc2n1CC(=O)N1CCc2ccccc2C1`, for which the inhibition is inactive: 29.1%.

For `C=CCOC(=O)C1=C(C)N=C2SCCC(=O)N2C1/C=C/c1ccccc1OC` (stereo not given), the inhibition was inactive: -20.1%.

Turning to `O=C1Cn2c(nc3ccccc32)N1c1ccccc1F`, the inhibition was inactive: 12.3%.

Regarding `N=c1n(CCCOc2ccc(F)cc2)c2ccccc2n1CC(N)=O`, the inhibition is inactive: 13.5%.

With `Cc1n[nH]c(C)c1CCC(=O)N/N=C/C=C/c1ccccc1`, the inhibition was inactive: 11.6%.

For `CCCn1c(=O)[nH]c(=O)c2c1nc(-c1ccccc1)n2CCN1CCOCC1`, the inhibition was inactive: -19.5%.

As for `CCCCC(=O)N/N=C(C)/C=C/c1ccccc1F`, the inhibition was inactive: -13.5%.

For the compound `CCOc1ccc(C(O)Cn2c(=N)n(CCN3CCCCC3)c3ccccc32)cc1` (stereo not given), the inhibition is inactive: -23.1%.
